Data taken from patent US7842470B2, “Method for pharmacoperones correction of GnRHR mutant protein misfolding” (Oregon Health & Science University, priority 2001, dated 2010).

Test system: mouse and rat GnRHR bearing human HH mutations

## Cc1cc(C)cc(-c2[nH]c3ccc(C(C)(C)C(=O)N4CC5CCC4CC5)cc3c2[C@H](C)CNCCc2ccncc2)c1 [IN3, (2S)-2-[5-[2-(2-azabicyclo[2.2.2]oct-2-yl)-1,1-dimethyl-2-oxoethyl]-2-(3,5-dimethylphenyl)-1H-indol-3-yl]-N-(2-pyridin-4-ylethyl)propan-1-amine]
  concentration of IN3 that results in optimum rescue: 1 µg/mL
